Experimental findings from ChEMBL document CHEMBL1130160 (J Med Chem, 1997) are described below.

Amino acid sequences for entries named in this document (tags omitted). A change or cut given only in a name is not applied to a line headed by its entry.
UniProt Q92731: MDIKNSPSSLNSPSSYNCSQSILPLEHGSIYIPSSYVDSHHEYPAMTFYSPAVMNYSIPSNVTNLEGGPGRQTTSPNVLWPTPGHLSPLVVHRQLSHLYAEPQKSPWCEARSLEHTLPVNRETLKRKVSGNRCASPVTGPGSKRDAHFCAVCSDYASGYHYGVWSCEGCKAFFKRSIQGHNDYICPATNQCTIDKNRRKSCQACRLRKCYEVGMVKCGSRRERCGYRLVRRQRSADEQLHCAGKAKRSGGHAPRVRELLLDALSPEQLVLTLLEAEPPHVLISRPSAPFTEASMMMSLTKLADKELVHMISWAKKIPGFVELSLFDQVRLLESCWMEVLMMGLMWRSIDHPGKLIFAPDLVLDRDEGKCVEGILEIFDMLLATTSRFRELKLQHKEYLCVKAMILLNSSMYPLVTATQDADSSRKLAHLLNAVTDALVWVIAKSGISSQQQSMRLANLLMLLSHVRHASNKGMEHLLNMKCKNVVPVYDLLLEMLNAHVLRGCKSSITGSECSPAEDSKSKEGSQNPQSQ
UniProt P03372: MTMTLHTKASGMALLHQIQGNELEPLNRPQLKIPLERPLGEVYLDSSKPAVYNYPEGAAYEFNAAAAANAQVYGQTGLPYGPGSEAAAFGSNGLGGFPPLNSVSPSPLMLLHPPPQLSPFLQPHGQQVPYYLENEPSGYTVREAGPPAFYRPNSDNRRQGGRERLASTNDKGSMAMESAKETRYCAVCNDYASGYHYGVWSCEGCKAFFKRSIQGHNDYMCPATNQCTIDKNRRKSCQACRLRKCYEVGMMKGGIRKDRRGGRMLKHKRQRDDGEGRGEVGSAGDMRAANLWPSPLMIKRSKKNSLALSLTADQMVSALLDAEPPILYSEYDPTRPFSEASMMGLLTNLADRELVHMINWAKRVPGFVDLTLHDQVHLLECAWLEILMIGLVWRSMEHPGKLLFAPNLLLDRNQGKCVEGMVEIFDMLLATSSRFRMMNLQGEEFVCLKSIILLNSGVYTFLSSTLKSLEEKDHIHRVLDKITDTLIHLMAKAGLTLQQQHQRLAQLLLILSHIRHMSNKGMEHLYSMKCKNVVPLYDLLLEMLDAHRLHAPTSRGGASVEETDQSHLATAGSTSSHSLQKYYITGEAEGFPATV

This test addresses Estrogen receptor (Homo sapiens, UniProt Q92731+P03372). Conditions: mcf7.

Take `Cc1sc2cc(O)ccc2c1C(=O)c1ccc(OCCN2CCCCC2)cc1`: the IC50 (in general, the concentration that inhibits the measured activity by half) is on record as 35 nM.

The molecule `O=C(c1ccc(OCCN2CCCCC2)cc1)c1c(C2CCCCC2)sc2cc(O)ccc12` registered an IC50 of 2.5 nM.
